Among the data in patent publication US5688807A, “Method for treating 5HT2B receptor related conditions” (Eli Lilly and Company, priority 1995, dated 1997) are Ki values, retold here.

Chains of the proteins cited; added tags and fusions are not shown.
UniProt P28223, whole entry: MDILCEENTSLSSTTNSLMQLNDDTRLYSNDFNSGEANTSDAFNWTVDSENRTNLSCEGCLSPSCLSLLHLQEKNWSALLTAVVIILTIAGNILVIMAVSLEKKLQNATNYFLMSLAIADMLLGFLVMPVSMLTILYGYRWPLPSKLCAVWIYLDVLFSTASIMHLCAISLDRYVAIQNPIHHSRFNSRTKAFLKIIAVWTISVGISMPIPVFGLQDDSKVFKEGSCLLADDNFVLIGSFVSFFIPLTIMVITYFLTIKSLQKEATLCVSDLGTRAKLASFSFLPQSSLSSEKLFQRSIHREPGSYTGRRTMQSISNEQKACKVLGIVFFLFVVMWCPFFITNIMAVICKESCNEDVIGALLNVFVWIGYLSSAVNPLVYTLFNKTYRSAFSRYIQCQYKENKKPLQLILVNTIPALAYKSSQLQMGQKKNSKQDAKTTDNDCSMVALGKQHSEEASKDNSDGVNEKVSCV
UniProt P30994, whole entry: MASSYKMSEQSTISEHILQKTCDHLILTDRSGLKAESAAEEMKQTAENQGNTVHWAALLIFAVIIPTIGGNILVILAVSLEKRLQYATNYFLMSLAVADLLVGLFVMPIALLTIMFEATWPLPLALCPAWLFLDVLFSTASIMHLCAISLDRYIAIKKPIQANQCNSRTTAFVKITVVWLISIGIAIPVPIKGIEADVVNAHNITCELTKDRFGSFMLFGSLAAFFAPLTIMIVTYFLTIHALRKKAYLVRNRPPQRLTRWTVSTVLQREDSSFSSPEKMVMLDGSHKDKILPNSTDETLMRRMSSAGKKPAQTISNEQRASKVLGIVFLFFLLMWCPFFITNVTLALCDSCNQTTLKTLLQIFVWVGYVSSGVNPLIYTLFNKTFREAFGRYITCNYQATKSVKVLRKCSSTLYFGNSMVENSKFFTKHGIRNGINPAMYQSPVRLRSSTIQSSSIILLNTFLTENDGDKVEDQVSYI

Like-named read-outs stand apart in the source and are kept apart here.

One experiment has as its target Human 5-HT2A (Homo sapiens, UniProt P28223). The experiment is described as follows: [125I]DOI radioligand binding, human 5-HT2A.
Another experiment addresses rat 5-HT2B receptor (Rattus norvegicus, UniProt P30994). The experiment is described as follows: biochemical. Format: binding. Conditions: [3H]Serotonin, 5-HT2B cells, AVG.
The mark [1] stands for this setting: [125I]DOI, AVG, read-out: Ki Human 5-HT2A.

A word on the Ki: it is a dissociation constant, usually derived from enzyme kinetics or from competition with a known ligand.
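Throughout, for Ki Rat 5-HT2B: displacement of [3H]5-HT from membranes of suspension cells carrying cloned rat 5-HT2B receptor, incubated 15 min at 37 °C or 2 h at 0 °C, filter-bound radioactivity counted by scintillation.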

The molecule `CN1CC(C(=O)NC2CCCCC2)CC2c3cccc4[nH]cc(c34)CC21` (centres unmarked) gave an inhibition constant (Ki) on Human 5-HT2A (Ki Human 5-HT2A) of 0.9 nM.
On to `COc1ccc2[nH]cc(CCN)c2c1`, for which the Ki on rat 5-HT2B receptor (read-out: Ki Rat 5-HT2B) worked out at 9.15 nM.
On to `CN1CC(C(=O)NC2CCCC2O)CC2c3cccc4[nH]cc(c34)CC21` (centres unmarked), for which the Ki at Human 5-HT2A (setting [1]) is 0.6 nM.
Regarding `CC(C)n1cc2c3c(cccc31)C1CC(C(=O)NC3CCCCC3)CN(C)C1C2` (centres unmarked), the Ki at Human 5-HT2A (setting [1]) came out at 15.1 nM.
Molecule `COc1ccc2[nH]cc(CCN(C)C)c2c1` came in with a Ki on rat 5-HT2B receptor (Ki Rat 5-HT2B) of 14.8 nM.
